## AlphaSeq binding of Ab-14 light chain variants to a spike HR2 peptide

The measurements come from Engelhart et al. 2022 (doi:10.1038/s41597-022-01779-4) through the FLAb antibody collection.

Target peptide (SARS-CoV-2 spike, HR2 region): PDVDLGDISGINAS

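The starting antibody came from a phage panning campaign against this peptide. Variants in AAYL50 differ from the parent at up to three CDR positions; double and triple changes were sampled at random. The scFvs were displayed on barcoded MATa yeast, the peptide on MATalpha yeast. Binding brings cells together so that they mate, and sequencing counts the barcode pairs among the diploids. Scores were corrected for input abundance and mapped to Kd with protein pairs of known affinity run in the same pool. The assay was run in three technical replicates.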

Ab-14 is the parent antibody, in scFv form: VH, then a (GGGGS)3 linker, then VL. The heavy chain is unchanged in all variants.
VH: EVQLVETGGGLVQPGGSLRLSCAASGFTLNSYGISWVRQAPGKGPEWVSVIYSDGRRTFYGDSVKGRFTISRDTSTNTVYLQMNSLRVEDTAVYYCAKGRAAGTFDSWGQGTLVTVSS
VL: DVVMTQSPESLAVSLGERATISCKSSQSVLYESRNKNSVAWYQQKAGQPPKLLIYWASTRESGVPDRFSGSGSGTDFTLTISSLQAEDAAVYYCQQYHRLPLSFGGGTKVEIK

Substitutions are numbered in sequence along the VL above, starting at 1 (not Kabat).
Numbers give log10(Kd / nM), so 0 is 1 nM and 3 is 1 µM. Smaller is tighter.
Replicates are averaged; those with no signal do not enter the mean.
An entry "ND" has no value in the source: the pair was not observed among the diploids in that replicate. This suggests poor binding but is not conclusive.
Nonspecific signal, from three strains lacking the peptide, appeared in 18% of pairings of library AAYL50, centred on 4.19 (5% of these signals below 2.99); values are not corrected for it. The control count says in how many pairings with the empty strains this scFv gave a signal, with their mean in brackets.
For reference, the parent read 0.65 as the reference entry and 1.68 as a member of this library.

| # | changes | replicates, log10 nM | mean log10 Kd (nM) | empty controls |
|---|---|---|---|---|
| 1 | S38C+Q96E+R99F | ND ND ND | ND | 2/9 (3.67) |
| 2 | Q96E+L102G | ND ND ND | ND | 0/9 |
| 3 | Q27Y+E61F+L100I | 4.34 2.77 3.22 | 3.45 | 4/9 (4.00) |
| 4 | E32F+S38M+Y97F | ND ND ND | ND | 0/9 |
| 5 | Q27T | ND ND ND | ND | 0/9 |
| 6 | S33M+N37Y+Q95P | ND 4.99 ND | 4.99 | 3/9 (4.43) |
| 7 | Q27L+R34K+K36P | 0.63 0.87 0.70 | 0.73 | 1/9 (4.10) |
| 8 | R34D+Q95A | 1.97 2.23 1.45 | 1.88 | 1/9 (4.87) |
| 9 | S28R+N37V+P101E | ND ND ND | ND | 1/9 (3.78) |
| 10 | S33P+A57P+Q96H | ND 2.74 ND | 2.74 | 3/9 (4.33) |
| 11 | N35Q+W56N+A57F | 0.77 0.99 1.04 | 0.94 | 2/9 (4.68) |
| 12 | W56A+A57S | 0.14 0.47 0.30 | 0.30 | 0/9 |
| 13 | W56G+S58T+S62T | -0.22 0.13 -0.12 | -0.07 | 9/9 (5.89) |
| 14 | K24Q+Y31A+P101D | ND 3.28 ND | 3.28 | 0/9 |
| 15 | Q27F+N37D+L102R | 4.08 4.50 ND | 4.29 | 3/9 (3.82) |
| 16 | L30P+E32D+R60M | ND ND ND | ND | 0/9 |
| 17 | A40R+E61G+Y97H | ND ND ND | ND | 0/9 |
| 18 | S28C+S38T+A57P | ND ND ND | ND | 1/9 (3.68) |
| 19 | S38M+V39S+A57Q | ND ND 3.69 | 3.69 | 0/9 |
| 20 | Y31H+E61C+H98D | 1.23 1.23 1.27 | 1.24 | 3/9 (4.69) |
| 21 | L30T+V39D+E61V | 1.20 1.24 1.39 | 1.28 | 1/9 (5.02) |
| 22 | W56L+T59V+E61T | 2.34 2.14 2.15 | 2.21 | 4/9 (4.58) |
| 23 | K24H+Y31S+S33F | 1.96 2.15 2.61 | 2.24 | 4/9 (4.10) |
| 24 | S28Q+K36F+N37T | 3.75 3.16 4.00 | 3.64 | 3/9 (5.05) |
| 25 | S28Q+A40E+L102T | ND ND ND | ND | 1/9 (2.56) |
| 26 | S25A+R34Y+L102T | 0.87 1.04 1.11 | 1.01 | 3/9 (4.30) |
| 27 | S25M+S28P | ND 2.99 ND | 2.99 | 0/9 |
| 28 | R34D+T59V+Q95G | 1.28 1.40 1.42 | 1.37 | 5/9 (4.36) |
| 29 | E32P+S58L+P101Y | ND ND ND | ND | 2/9 (3.30) |
| 30 | A40I+T59E+Q95C | ND ND ND | ND | 0/9 |
| 31 | S28Q+A40M+R60F | ND ND ND | ND | 2/9 (2.49) |
| 32 | S26P+A57N | ND ND ND | ND | 0/9 |
| 33 | A40P+A57Q+S103G | 6.10 5.28 ND | 5.69 | 4/9 (4.12) |
| 34 | R34A+N35M+H98C | 0.24 0.57 0.63 | 0.48 | 1/9 (3.08) |
| 35 | N35V+P101A+S103Q | 2.52 2.67 3.38 | 2.86 | 3/9 (4.23) |
| 36 | K36M+N37D+S58Q | 1.85 2.18 2.33 | 2.12 | 4/9 (3.94) |
| 37 | V29W+Q96L+P101R | ND ND ND | ND | 0/9 |
| 38 | N35W+L100R | ND ND ND | ND | 0/9 |
| 39 | V29Y+A40V+Q95E | ND ND ND | ND | 3/9 (4.15) |
| 40 | S28Q+Y31H+Q95V | 1.21 1.41 1.23 | 1.29 | 0/9 |
| 41 | Q27N+S38H+Q96G | 1.83 1.86 2.17 | 1.95 | 1/9 (3.68) |
| 42 | V29F+V39W+T59K | 3.32 4.41 ND | 3.86 | 3/9 (3.61) |
| 43 | N35E+A40H+S103A | 5.25 ND ND | 5.25 | 1/9 (4.29) |
| 44 | S26W+Y31T+W56H | 0.18 0.41 0.26 | 0.28 | 3/9 (4.22) |
| 45 | K36G+T59Y+L102T | ND ND ND | ND | 1/9 (4.05) |
| 46 | Y31C+Q95R+Q96D | ND ND ND | ND | 1/9 (4.65) |
| 47 | R34N+K36Y+Q95W | 6.02 5.22 5.67 | 5.64 | 3/9 (4.54) |
| 48 | S26H+Q27M | 1.33 1.29 1.62 | 1.42 | 0/9 |
| 49 | E61V+Q95D+Y97N | 2.64 2.77 2.87 | 2.76 | 2/9 (3.82) |
| 50 | K24L+S26N+S62I | 1.99 2.28 1.70 | 1.99 | 0/9 |
| 51 | Q27V+L30R+R60F | 3.91 ND 5.24 | 4.58 | 1/9 (3.00) |
| 52 | S58T+E61H | 1.25 1.14 1.66 | 1.35 | 0/9 |

The first 3 variants above that were never detected:

changes,"replicates, log10 nM",mean log10 Kd (nM),empty controls
S38C+Q96E+R99F,ND ND ND,ND,2/9 (3.67)
Q96E+L102G,ND ND ND,ND,0/9
E32F+S38M+Y97F,ND ND ND,ND,0/9